The target of this assay is Kappa-type opioid receptor (Homo sapiens, UniProt P41145). The experiment in a line: Displacement of [3H]U69,593 from human kappa opioid receptor expressed in CHO cells by scintillation counting analysis. The class given is cell-based.

Amino acid sequences for entries named in this document (tags omitted). A change or cut given only in a name is not applied to a line headed by its entry.
UniProt P41145: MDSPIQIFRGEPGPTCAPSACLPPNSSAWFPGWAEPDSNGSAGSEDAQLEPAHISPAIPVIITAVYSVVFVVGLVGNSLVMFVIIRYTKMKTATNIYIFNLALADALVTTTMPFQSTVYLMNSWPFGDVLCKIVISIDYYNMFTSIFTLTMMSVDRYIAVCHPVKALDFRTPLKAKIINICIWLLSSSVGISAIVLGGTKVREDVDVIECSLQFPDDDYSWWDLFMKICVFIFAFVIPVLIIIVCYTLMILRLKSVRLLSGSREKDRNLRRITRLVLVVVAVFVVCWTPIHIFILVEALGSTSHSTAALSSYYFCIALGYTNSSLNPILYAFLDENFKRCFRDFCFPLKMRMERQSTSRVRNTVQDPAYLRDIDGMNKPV

The compound `Oc1ccc2c3c1O[C@H]1c4ncc(-c5ccc(Cl)cc5)cc4C[C@@]4(OCCCc5ccccc5)[C@@H](C2)N(CC2CC2)CC[C@]314` registered a Ki of 1.82 nM.

For the origin of these results see ChEMBL document CHEMBL2177065, “14-Alkoxy- and 14-acyloxypyridomorphinans: μ agonist/δ antagonist opioid analgesics with diminished tolerance and dependence side effects” (J Med Chem, 2012).
